Only some compounds are listed: those with a hit (about 2.3% of all), similar ones and a draw of the others.
Nrf2 block – Nrf2 pathway inhibition; A549 ARE-Fluc reporter, luciferase luminescence, 18-24 h; Potency, µM (series often up to 46 µM), for inactives: at the highest dose activity change, negative = inhibition, usual class: inhibitors; 360,000 compounds, 2.1% hits; AID 504444; also: potency is read from the fitted curve at half-maximal effect; % is scaled to controls: 0 for no effect and ±100 for the full control effect; nearly all actives have a fitted effect of over 60% in size
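Two sequential reads on A549 ARE_Fluc cells exposed to compound for 18-24 h: a CellTiter-Fluor fluorescence read for viability, then a luciferase luminescence read for Nrf2/ARE activity.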
miR-21 reporter – raises the signal of a miR-21 reporter; HeLa miR-21 FLuc reporter, luciferase, 48 h; Potency, µM (series often up to 38.3 µM), inactives show top-dose reporter change, positive = more light; 340,000 tested, under 10 active; active = well fitted rising curve with a large enough effect; inconclusive = small, poorly fitted or top-dose-only effect; inactive = no such curve, though single readings can be large or run the other way;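 also: % of control where 0% means no effect; miR-21 action dims this reporter so a rising signal means less miR-21 action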
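Using DMEM plus 10% FBS, HeLa miR-21-FLuc cells are incubated with test compounds (final up to about 40uM) for 48 hours; firefly luciferase signal is then imaged following reagent-mediated lysis.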
Nrf2 activator – Nrf2 pathway activation | 410,000 compounds, 0.31% hits | AREc32 ARE-luciferase reporter (MCF7-derived line), luminescence, 24 h | Potency, µM (highest dose often 46.1 µM), inactives show at the top dose activation, hits mostly activators; also: potency is read from the fitted curve at half-maximal effect; % of control where 0% means no effect; nearly all actives have a fitted effect of over 65% in size
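Cells of the AREc32 ARE-luciferase line are plated in OPTI-MEM containing 5% FBS and left overnight at 37 deg C. Compounds are pinned in, incubation continues 24 hr, and firefly luciferase signal is then measured.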
GRP78 ERSR act – induces the endoplasmic reticulum stress response in human glioma cells; U87-MG GRP78 promoter luciferase reporter, 16 h; Potency, µM, without a hit: at the highest dose activation, most hits filed as activators; 420,000 compounds, 0.02% hits; also: potency is read from the fitted curve at half-maximal effect; series mostly up to about 76 µM; % of control where 0% means no effect; nearly all actives have a fitted effect of over 35% in size
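Stably transfected U87-MG human glioma cells carrying a GRP78-based luminescent sensor were seeded at 1000 cells/well, pin-dosed with compounds and incubated 16 h. Luciferase reagent was then added, and end-point luminescence was read after 10 min at room temperature.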
A549 viability – counter-screen for Nrf2 inhibitors: cytotoxicity in A549 cells. Potency, µM (series often up to 46 µM), for the others: at the top dose activity change, negative = cytotoxicity, hits mostly inhibitors. 390,000 compounds, 0.16% hits. A549 ARE-Fluc cells, CellTiter-Fluor viability, 18-24 h. AID 504648; also: potency is read from the fitted curve at half-maximal effect; % is scaled to controls: 0 for no effect and ±100 for the full control effect
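Cytotoxicity counterscreen: CellTiter-Fluor fluorescence was measured in A549 ARE_Fluc cells after 18-24 h of compound exposure in a concentration series. The subsequent BugLite luminescent read reports ARE-luciferase activity.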
Mito fusion act – mitochondrial division inhibition or fusion activation; 320,000 compounds, 0.23% hits; AID 485298; Potency, µM (doses to about 46.1 µM), inactives show at the highest dose growth rescue (activation), usual class: activators; S. cerevisiae fusion-defective mutant growth rescue, CellTiterGlo 48 h; also: potency is read from the fitted curve at half-maximal effect; % of control where 0% means no effect; nearly all actives have a fitted effect of over 45% in size
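Read-out: ATP-based luminescence (CellTiterGlo, 10 min ambient) reporting growth of fusion-defective ts yeast after 48 hours at 37C on glycerol/ethanol YPEG medium in the presence of compound.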
An asterisk follows results filed as active; u = inconclusive; x = no result given; [ ] = remark or other dose. Unless noted, calls follow the shape of the dose curve; as a rule, active = well fitted curve in the direction sought with a large enough effect; inconclusive = small, poorly fitted or top-dose-only effect, or another doubt; inactive = no such curve, though single readings can be large; an effect the other way counts as inactive or inconclusive.

Results follow in this order: Nrf2 block | miR-21 reporter | Nrf2 activator | GRP78 ERSR act | A549 viability | Mito fusion act
[1] O=C(NCC(c1cccnc1)N1CCN(c2ccccc2F)CC1)OCc1ccccc1 (stereo not drawn)
    21µM* | 15% | 1% | -6% | -22% | 4%
[2] O=C(NCC(c1cccnc1)N1CCN(c2ccccc2)CC1)OCc1ccccc1 (stereo not drawn)
    -20% | 10% | 0% | -3% | -4% | 28%
[3] O=C(NCC(c1ccco1)N1CCN(c2ccccc2F)CC1)c1cccs1 (stereo not drawn)
    -4% | x | 2% | -1% | 0% | 17%
[4] Cc1c(CCOC(=O)c2ccc(N3CCOCC3)c([N+](=O)[O-])c2)sc[n+]1CC#N
    16µM* | 18% | 10% | 4% | u | 4%
[5] O=C(NC(=S)Nc1ccc(Br)cn1)c1cccnc1
    28% | -3% | 4% | 6% | 2% | 0%
[6] CC(=O)Nc1cccc(S(=O)(=O)N2CCCN(S(=O)(=O)c3ccc4c(c3)OCCO4)CC2)c1
    15µM* | x | x | x | -12% | x
[7] CC(=O)Nc1cccc(S(=O)(=O)N2CCN(S(=O)(=O)c3ccc4c(c3)OCCO4)CC2)c1
    u | x | x | x | -2% | x
[8] Cc1cccc(NC(=O)C2CCN(S(=O)(=O)c3ccc4c(c3)OCCCO4)CC2)n1
    15µM* | x | 2% | 2% | -14% | 2%
[9] O=C(NCC(=O)N1CCN(S(=O)(=O)c2ccc3c(c2)OCCO3)CC1)c1ccccc1F
    -11% | x | 0% | -3% | 1% | x
[10] O=C(NCC(=O)N1CCN(S(=O)(=O)c2ccc3c(c2)OCCO3)CC1)c1ccccc1Cl
    12µM* | x | 4% | -2% | -3% | 0%

3 of the entries above in order of their number in miR-21 reporter, rising.
entry	Compound	miR-21 reporter
5	O=C(NC(=S)Nc1ccc(Br)cn1)c1cccnc1	-3%
2	O=C(NCC(c1cccnc1)N1CCN(c2ccccc2)CC1)OCc1ccccc1 (stereo not drawn)	10%
4	Cc1c(CCOC(=O)c2ccc(N3CCOCC3)c([N+](=O)[O-])c2)sc[n+]1CC#N	18%

Next results:
Results follow in this order: Nrf2 block | miR-21 reporter | Nrf2 activator | GRP78 ERSR act | A549 viability | Mito fusion act
[11] O=C(C1CCN(S(=O)(=O)c2ccc3c(c2)OCCO3)CC1)N1CCc2ccccc21
    15µM* | -4% | 0% | -4% | 0% | -8%
[12] O=C(C1CCN(S(=O)(=O)c2ccccc2)CC1)N1CCc2ccccc21
    -7% | 1% | -1% | -4% | 4% | -2%
[13] COc1ccc(OC)c(NC(=O)CSc2nnc(-c3ccco3)o2)c1
    -4% | -5% | 0% | -3% | 0% | -1%
[14] COc1ccccc1-c1ccc2nnc(SCC(=O)N3CCCC3)n2n1
    7% | x | 1% | -1% | 2% | 1%
[15] Nc1c(N(Cc2ccco2)C(=O)c2ccc(Br)cc2)c(=O)[nH]c(=O)n1Cc1ccccc1
    -11% | x | 2% | -2% | -1% | -15%
[16] Cc1noc(C)c1C(=O)OCC(=O)Nc1cc(Cl)ccc1Oc1ccccc1
    -4% | 0% | 2% | -3% | -1% | 21%
[17] CCOC(=S)SCc1cn2cccc(C)c2n1
    u | -12% | 3% | 4% | -1% | 1%
[18] CCC(=O)OCC(=O)[C@@]1(OC(=O)CC)[C@@H](C)C[C@H]2[C@@H]3CCC4=CC(=O)C=C[C@]4(C)[C@@]3(Cl)[C@@H](O)C[C@@]21C
    0.0058µM* | x | 6% | -2% | -5% | u
[19] COc1cc2[nH]c(=O)n(CCC(=O)N3CCN(c4ccc(Cl)cc4)CC3)c(=O)c2cc1OC
    5%[9.27 µM] | 0% | -1% | -3% | 5% | x
[20] CC(C)[C@H](NC(=O)c1ccc([N+](=O)[O-])cc1Cl)C(=O)N1CCN(C/C=C/c2ccccc2)CC1
    23µM* | x | 6% | -3% | u | x

Rewritten with one line to a screen: part of the list above.
(14) COc1ccccc1-c1ccc2nnc(SCC(=O)N3CCCC3)n2n1
(15) Nc1c(N(Cc2ccco2)C(=O)c2ccc(Br)cc2)c(=O)[nH]c(=O)n1Cc1ccccc1
Screen / compound no.,14,15
Nrf2 block,7%,-11%
miR-21 reporter,x,x
Nrf2 activator,1%,2%
GRP78 ERSR act,-1%,-2%
A549 viability,2%,-1%
Mito fusion act,1%,-15%

Next entries follow.
Results follow in this order: Nrf2 block | miR-21 reporter | Nrf2 activator | GRP78 ERSR act | A549 viability | Mito fusion act
[21] COc1ccc(C(=O)NC(C(=O)N2CCN(C/C=C/c3ccccc3)CC2)C(C)C)cc1 (stereo not drawn)
    x | x | -1% | -7% | x | x
[22] COc1cccc(/C=N/NC(N)=S)c1OS(=O)(=O)c1ccccc1
    -20% | -19% | 0% | -8% | -10% | 1%
[23] Cc1ccc(NC(=S)N=Nc2c(O)[nH]c3ccccc23)cc1
    -20% | 6% | 9% | 3% | -11% | -18%
[24] COc1ccc(NC(=S)N=Nc2c(O)[nH]c3ccccc23)cc1
    9.2µM* | 17% | 18% | -3% | u | 14%
[25] O=C(Nc1nc(-c2ccccn2)cs1)c1ccc([N+](=O)[O-])o1
    5% | u | 11µM* | 10% | -6% | -11%
